Assay results published in patent publication US20260022143A1, “Cyclic Peptide Inhibitors of IL-23” (JANSSEN PHARMACEUTICA NV, priority 2022, published 2026).
pIC50: −log10 of the molar value.

Biological target: T1, IL-23R (Homo sapiens, UniProt Q5VWK5)
T1 construct: host or cells: HEK293
T1 sequence (Q5VWK5 24-629): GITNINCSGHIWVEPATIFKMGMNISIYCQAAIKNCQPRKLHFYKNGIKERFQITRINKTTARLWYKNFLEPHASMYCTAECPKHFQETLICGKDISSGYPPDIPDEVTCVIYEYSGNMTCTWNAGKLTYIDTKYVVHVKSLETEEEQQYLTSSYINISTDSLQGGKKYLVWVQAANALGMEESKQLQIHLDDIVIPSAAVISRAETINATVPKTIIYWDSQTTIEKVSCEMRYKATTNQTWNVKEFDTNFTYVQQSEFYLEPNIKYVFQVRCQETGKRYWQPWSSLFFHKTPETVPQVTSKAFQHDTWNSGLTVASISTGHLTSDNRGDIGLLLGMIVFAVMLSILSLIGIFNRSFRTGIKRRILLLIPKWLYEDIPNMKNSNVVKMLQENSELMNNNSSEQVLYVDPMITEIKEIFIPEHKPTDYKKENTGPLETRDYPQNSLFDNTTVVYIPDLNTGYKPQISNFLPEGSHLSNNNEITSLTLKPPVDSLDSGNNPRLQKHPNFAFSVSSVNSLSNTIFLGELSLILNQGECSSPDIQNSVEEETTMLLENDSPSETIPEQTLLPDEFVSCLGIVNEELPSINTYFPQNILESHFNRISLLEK
Test: IL23R Reporter Assay
Type: cell-based
Settings: HEK293 cells containing IL-23R, IL-12RP1 and STAT-inducible firefly luciferase reporter; 10 ng/mL IL-23 (EC90); 5 h at 37° C.; read-out: IL23R Reporter Assay

SMILES	pIC50
CC(=O)NC[C@H](NC(=O)C1(NC(=O)[C@H](Cc2ccc3ccccc3c2)NC(=O)[C@H](Cc2ccc(OCCN(C)C)cc2)NC(=O)[C@H]2NC(=O)[C@H](CCCCN(C)C(C)=O)NC(=O)[C@H](Cc3c[nH]c4c(C)cccc34)NC(=O)[C@H]([C@@H](C)O)NC(=O)[C@H](CC(=O)N(C)C)NC(=O)[C@@H](NC(=O)CCCCC[N+](C)(C)C)C(C)(C)SSC2(C)C)CCOCC1)C(=O)N[C@@H](CC(N)=O)C(=O)N[C@@H](Cc1cccnc1)C(=O)N(C)CC(=O)N(C)C [compound 133, 5cpaCO-Pen(3)-N(N(Me)2)-T-7MeW-K(NMeAc)-Pen(3)-AEF(N(Me)2)-2Nal-THP-Dap(Ac)-N-3Pya-Sar-CON(Me)2]	8.72
Cc1cccc2c(C[C@@H]3NC(=O)[C@H]([C@@H](C)O)NC(=O)[C@H](CC(N)=O)NC(=O)[C@@H](NC(=O)CCOCCOCC[N+](C)(C)C)C(C)(C)SSC(C)(C)[C@@H](C(=O)N[C@@H](Cc4ccc(OCCN)cc4)C(=O)N[C@@H](Cc4ccc5ccccc5c4)C(=O)NC4(C(=O)N[C@@H](CCC(=O)N(C)C)C(=O)N[C@@H](CC(N)=O)C(=O)N[C@@H](Cc5cccnc5)C(=O)N(C)CC(N)=O)CCOCC4)NC(=O)[C@H](CCC(=O)N(C)C)NC3=O)c[nH]c12 [compound 137, cPEG3aCO-Pen(3)-N-T-7MeW-Q(N(Me)2)-Pen(3)-AEF-2Nal-THP-Q(N(Me)2)-N-3Pya-Sar-CONH2]	8.44
CC(=O)N[C@@H]1C(=O)N[C@@H](CC(N)=O)C(=O)N[C@@H]([C@@H](C)O)C(=O)N[C@@H](Cc2c[nH]c3c(C)cccc23)C(=O)N[C@@H](CCC(=O)N(C)C)C(=O)N[C@H](C(=O)N[C@@H](Cc2ccc(OCCN)cc2)C(=O)N[C@@H](Cc2ccc3ccccc3c2)C(=O)NC2(C(=O)N[C@@H](CCC(=O)N(C)C)C(=O)N[C@@H](CC(N)=O)C(=O)N[C@@H](Cc3cccnc3)C(=O)N(C)CC(N)=O)CCOCC2)C(C)(C)SSC1(C)C [compound 138]	8.57
CC(=O)N(C)CCCC[C@@H]1NC(=O)[C@H](Cc2c[nH]c3c(C)cccc23)NC(=O)[C@H]([C@@H](C)O)NC(=O)[C@H](CC(=O)N(C)C)NC(=O)[C@@H](NC(=O)CCOCCOCC[N+](C)(C)C)C(C)(C)SSC(C)(C)[C@@H](C(=O)N[C@@H](Cc2ccc(OCCN)cc2)C(=O)N[C@@H](Cc2ccc3ccccc3c2)C(=O)NC2(C(=O)N[C@@H](CCC(=O)N(C)C)C(=O)N[C@@H](CC(N)=O)C(=O)N[C@@H](Cc3cccnc3)C(=O)N(C)CC(N)=O)CCOCC2)NC1=O [compound 150, cPEG3aCO-Pen(3)-N(N(Me)2)-T-7MeW-K(NMeAc)-Pen(3)-AEF-2Nal-THP-Q(N(Me)2)-N-3Pya-Sar-CONH2]	8.48
Cc1cccc2c(C[C@@H]3NC(=O)[C@H]([C@@H](C)O)NC(=O)[C@H](CC(=O)N(C)C)NC(=O)[C@@H](NC(=O)CCOCCOCC[N+](C)(C)C)C(C)(C)SSC(C)(C)[C@@H](C(=O)N[C@@H](Cc4ccc(OCCN(C)C)cc4)C(=O)N[C@@H](Cc4ccc5ccccc5c4)C(=O)NC4(C(=O)N[C@@H](CCC(=O)N(C)C)C(=O)N[C@@H](CC(N)=O)C(=O)N[C@@H](Cc5cccnc5)C(=O)N(C)CC(=O)N(C)C)CCOCC4)NC(=O)[C@H](CCC(=O)N(C)C)NC3=O)c[nH]c12 [compound 154, cPEG3aCO-Pen(3)-N(N(Me)2)-T-7MeW-Q(N(Me)2)-Pen(3)-AEF(N(Me)2)-2Nal-THP-Q(N(Me)2)-N-3Pya-Sar-CON(Me)2]	8.62
CC(=O)NCCCC[C@@H]1NC(=O)[C@H](Cc2c[nH]c3c(C)cccc23)NC(=O)[C@H]([C@@H](C)O)NC(=O)[C@H](CC(N)=O)NC(=O)[C@@H](NC(C)=O)C(C)(C)SSC(C)(C)[C@@H](C(=O)N[C@@H](Cc2ccc(OCCN)cc2)C(=O)N[C@@H](Cc2ccc3ccccc3c2)C(=O)NC2(C(=O)N[C@@H](CCCCNC(C)=O)C(=O)N[C@@H](CC(N)=O)C(=O)N[C@@H](Cc3cccnc3)C(=O)N(C)CC(=O)NCCOCCOCCOCCOCC[N+](C)(C)C)CCOCC2)NC1=O [compound 155]	8.66
COCCOCCOCCOCCOCCOCCC(=O)N(C)CC[C@@H]1NC(=O)[C@H](Cc2c[nH]c3c(C)cccc23)NC(=O)[C@H]([C@@H](C)O)NC(=O)[C@H](CC(=O)N(C)C)NC(=O)[C@@H](NC(C)=O)C(C)(C)SSC(C)(C)[C@@H](C(=O)N[C@@H](Cc2ccc(OCCN)cc2)C(=O)N[C@@H](Cc2ccc3ccccc3c2)C(=O)NC2(C(=O)N[C@@H](CCC(=O)O)C(=O)N[C@@H](CC(N)=O)C(=O)N[C@@H](Cc3cccnc3)C(=O)N(C)CC(=O)N(C)C)CCOCC2)NC1=O [compound 158, MeCO-Pen(3)-N(N(Me)2)-T-7MeW-Dab(NMeCOmPEG6)-Pen(3)-AEF-2Nal-THP-E-N-3Pya-Sar-CON(Me)2]	8.41
CC(=O)N(C)CCCC[C@@H]1NC(=O)[C@H](Cc2c[nH]c3c(C)cccc23)NC(=O)[C@H]([C@@H](C)O)NC(=O)[C@H](CC(=O)N(C)C)NC(=O)[C@@H](NC(=O)CCOCCOCC[N+](C)(C)C)C(C)(C)SSC(C)(C)[C@@H](C(=O)N[C@@H](Cc2ccc(OCCCCC[N+](C)(C)C)cc2)C(=O)N[C@@H](Cc2ccc3ccccc3c2)C(=O)NC2(C(=O)N[C@@H](CCCCN(C)C(C)=O)C(=O)N[C@@H](CC(N)=O)C(=O)N[C@@H](Cc3cccnc3)C(=O)N(C)CC(=O)N(C)C)CCOCC2)NC1=O [compound 164, cPEG3aCO-Pen(3)-N(N(Me)2)-T-7MeW-K(NMeAc)-Pen(3)-TMAPF-2Nal-THP-K(NMeAc)-N-3Pya-Sar-CON(Me)2]	8.62
CC(=O)N(C)CCCC[C@H](NC(=O)C1(NC(=O)[C@H](Cc2ccc3ccccc3c2)NC(=O)[C@H](Cc2ccc(OCCN)cc2)NC(=O)[C@H]2NC(=O)[C@H](CCC(=O)N(C)C)NC(=O)[C@H](Cc3c[nH]c4c(C)cccc34)NC(=O)[C@H]([C@@H](C)O)NC(=O)[C@H](CC(N)=O)NC(=O)[C@@H](NC(=O)CCOCCOCC[N+](C)(C)C)C(C)(C)SSC2(C)C)CCOCC1)C(=O)N[C@@H](CC(N)=O)C(=O)N[C@@H](Cc1cccnc1)C(=O)N(C)CC(N)=O [compound 168, cPEG3aCO-Pen(3)-N-T-7MeW-Q(N(Me)2)-Pen(3)-AEF-2Nal-THP-K(NMeAc)-N-3Pya-Sar-CONH2]	8.60
CC(=O)N(C)CCCC[C@@H]1NC(=O)[C@H](Cc2c[nH]c3c(C)cccc23)NC(=O)[C@H]([C@@H](C)O)NC(=O)[C@H](CC(=O)N(C)C)NC(=O)[C@@H](NC(=O)CCOCCOCC[N+](C)(C)C)C(C)(C)SSC(C)(C)[C@@H](C(=O)N[C@@H](Cc2ccc(OCCN)cc2)C(=O)N[C@@H](Cc2ccc3ccccc3c2)C(=O)NC2(C(=O)N[C@@H](CCCCN(C)C(C)=O)C(=O)N[C@@H](CC(N)=O)C(=O)N[C@@H](Cc3cccnc3)C(=O)N(C)CC(N)=O)CCOCC2)NC1=O [compound 169, cPEG3aCO-Pen(3)-N(N(Me)2)-T-7MeW-K(NMeAc)-Pen(3)-AEF-2Nal-THP-K(NMeAc)-N-3Pya-Sar-CONH2]	8.64
CC(=O)N[C@@H]1C(=O)N[C@@H](CC(=O)N(C)C)C(=O)N[C@@H]([C@@H](C)O)C(=O)N[C@@H](Cc2c[nH]c3c(C)cccc23)C(=O)N[C@@H](CCCCN(C)C(C)=O)C(=O)N[C@H](C(=O)N[C@@H](Cc2ccc(OCCN)cc2)C(=O)N[C@@H](Cc2ccc3ccccc3c2)C(=O)NC2(C(=O)N[C@@H](CCCCN(C)C(C)=O)C(=O)N[C@@H](CC(N)=O)C(=O)N[C@@H](Cc3cccnc3)C(=O)N(C)CC(N)=O)CCOCC2)C(C)(C)SSC1(C)C [compound 182, MeCO-Pen(3)-N(N(Me)2)-T-7MeW-K(NMeAc)-Pen(3)-AEF-2Nal-THP-K(NMeAc)-N-3Pya-Sar-CONH2]	8.77
CC(=O)N[C@@H]1C(=O)N[C@@H](CC(=O)N(C)C)C(=O)N[C@@H]([C@@H](C)O)C(=O)N[C@@H](Cc2c[nH]c3c(C)cccc23)C(=O)N[C@@H](CCCCN(C)C(C)=O)C(=O)N[C@H](C(=O)N[C@@H](Cc2ccc(OCCCCC[N+](C)(C)C)cc2)C(=O)N[C@@H](Cc2ccc3ccccc3c2)C(=O)NC2(C(=O)N[C@@H](CCCCN(C)C(C)=O)C(=O)N[C@@H](CC(N)=O)C(=O)N[C@@H](Cc3cccnc3)C(=O)N(C)CC(=O)N(C)C)CCOCC2)C(C)(C)SSC1(C)C [compound 190, MeCO-Pen(3)-N(N(Me)2)-T-7MeW-K(NMeAc)-Pen(3)-TMAPF-2Nal-THP-K(NMeAc)-N-3Pya-Sar-CON(Me)2]	8.66
CC(=O)NCCCC[C@@H]1NC(=O)[C@H](Cc2c[nH]c3c(C)cccc23)NC(=O)[C@H]([C@@H](C)O)NC(=O)[C@H](CC(N)=O)NC(=O)[C@@H](NC(=O)CCOCCOCC[N+](C)(C)C)C(C)(C)SSC(C)(C)[C@@H](C(=O)N[C@@H](Cc2ccc(OCCOCCOCC[N+](C)(C)C)cc2)C(=O)N[C@@H](Cc2ccc3ccccc3c2)C(=O)NC2(C(=O)N[C@@H](CCCCNC(C)=O)C(=O)N[C@@H](CC(N)=O)C(=O)N[C@@H](Cc3cccnc3)C(=O)N(C)CC(N)=O)CCOCC2)NC1=O [compound 195, cPEG3aCO-Pen(3)-N-T-7MeW-K(Ac)-Pen(3)-APEG3F-2Nal-THP-K(Ac)-N-3Pya-Sar-CONH2]	8.54
CC(=O)N(C)CC[C@H](NC(=O)C1(NC(=O)[C@H](Cc2ccc3ccccc3c2)NC(=O)[C@H](Cc2ccc(OCCN)cc2)NC(=O)[C@H]2NC(=O)[C@H](CCN(C)C(=O)CCOCCOCC[N+](C)(C)C)NC(=O)[C@H](Cc3c[nH]c4c(C)cccc34)NC(=O)[C@H]([C@@H](C)O)NC(=O)[C@H](CC(=O)N(C)C)NC(=O)[C@@H](NC(=O)CCOCCOCC[N+](C)(C)C)C(C)(C)SSC2(C)C)CCOCC1)C(=O)N[C@@H](CC(N)=O)C(=O)N[C@@H](Cc1cccnc1)C(=O)N(C)CC(=O)N(C)C [compound 196, cPEG3aCO-Pen(3)-N(N(Me)2)-T-7MeW-Dab(NMecPEG3a)-Pen(3)-AEF-2Nal-THP-Dab(NMeAc)-N-3Pya-Sar-CON(Me)2]	8.41
